Test results as given in PubChem BioAssay AID602396 (The Scripps Research Institute Molecular Screening Center, 2012).
The entries are a selection whose mix differs from that of the whole data set. Some structures show a salt or complex split into parts, the way the source records it. Activity calls are given as the source filed them.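 How the source made its calls: active means inhibition above the mean inhibition of all tested compounds plus 3 SD (cut at about 73% in these data); inactive means the rest.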

Protein sequences, listed by entry. Tags and fused reporters are not part of them.
UniProt O00482, whole entry: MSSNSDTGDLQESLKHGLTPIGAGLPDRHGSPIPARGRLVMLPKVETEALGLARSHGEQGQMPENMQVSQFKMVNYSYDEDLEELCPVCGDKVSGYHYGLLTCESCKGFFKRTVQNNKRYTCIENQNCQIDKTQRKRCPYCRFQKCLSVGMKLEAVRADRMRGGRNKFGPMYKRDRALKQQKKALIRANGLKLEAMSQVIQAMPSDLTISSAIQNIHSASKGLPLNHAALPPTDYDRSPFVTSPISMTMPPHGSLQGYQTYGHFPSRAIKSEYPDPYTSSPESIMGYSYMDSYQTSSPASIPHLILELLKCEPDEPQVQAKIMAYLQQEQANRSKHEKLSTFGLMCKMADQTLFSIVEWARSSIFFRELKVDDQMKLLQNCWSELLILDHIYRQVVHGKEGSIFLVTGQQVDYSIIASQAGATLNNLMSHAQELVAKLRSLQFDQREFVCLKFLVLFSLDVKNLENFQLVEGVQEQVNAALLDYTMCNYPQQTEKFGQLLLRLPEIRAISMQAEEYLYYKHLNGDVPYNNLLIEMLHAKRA

target: Nuclear receptor subfamily 5 group A member 2 (Homo sapiens) (UniProt O00482); test: reduction of NR5A2-driven StAR reporter activity – cell-based, luminescence, HEK293T, StAR-luciferase reporter, primary screen (AID 602396); conditions: LRH-1 transfected, 24 h, at 3.6 µM, hits give high values;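 further: 0% = DMSO wells and 100% = reporter-only cells lacking LRH-1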

Compound | inhibition
CCCOc1ccc(NP(C)(=O)Oc2ccc(Cl)cc2)cc1 (configuration not stated) | inactive: 1.84%
CP(=O)(Nc1ccc(SC(F)(F)F)cc1)Oc1ccccc1 (configuration not stated) | inactive: 7.37%
COc1ccccc1OP(C)(=O)Nc1c(C)cccc1C (configuration not stated) | inactive: -6.16%
CN1CCCCC1COC(=O)C1(O)c2ccccc2CCc2ccccc21 (configuration not stated) | inactive: 7.49%
CC1=C2N=C(C=C3N=C(C(C)=C4[N-][C@@](C)([C@@H]5N=C1[C@](C)(CCC(=O)NC[C@@H](C)OP(=O)([O-])O[C@H]1[C@@H](O)[C@@H](n6cnc7cc(C)c(C)cc76)O[C@@H]1CO)[C@H]5CC(N)=O)[C@@](C)(CC(N)=O)[C@@H]4CCC(N)=O)[C@@](C)(CC(N)=O)[C@@H]3CCC(N)=O)C(C)(C)[C@@H]2CCC(N)=O.[C-]#N.[Co+3] | inactive: 6.39%
O=[N+]([O-])c1cc([N+](=O)[O-])c(Nc2nnnn2CCO)c([N+](=O)[O-])c1 | inactive: -3.95%
CCOC(=O)C(CC)C1=NC(C)(C)Cc2ccccc21.O=[N+]([O-])c1cc([N+](=O)[O-])c(O)c([N+](=O)[O-])c1 (configuration not stated) | inactive: -10.5%
Cc1nc2ccc3ccccc3c2s1.O=[N+]([O-])c1cc([N+](=O)[O-])c(O)c([N+](=O)[O-])c1 | inactive: -5.73%
O=[N+]([O-])c1cc([N+](=O)[O-])c(-c2cnn(-c3ccccc3)c2)c([N+](=O)[O-])c1 | inactive: 49.3%
CN(Cc1cccnc1)C(=O)COc1ccc(Cl)c(Cl)c1.O=[N+]([O-])c1cc([N+](=O)[O-])c(O)c([N+](=O)[O-])c1 | inactive: -25.4%
O=[N+]([O-])c1cc([N+](=O)[O-])c(-n2nnc3ccccc32)c([N+](=O)[O-])c1 | inactive: 4.35%
Cc1ccc(C)c(NP(C)(=O)Oc2ccccc2)c1 (configuration not stated) | inactive: 13.7%
Cc1cc(C)cc(OP(C)(=O)Nc2ccccn2)c1 (configuration not stated) | inactive: 5.76%
CP(=O)(Nc1cccc(Br)c1)Oc1ccccc1 (configuration not stated) | inactive: 16%
CCOC(=O)c1ccc(NP(C)(=O)Oc2cc(C)cc(C)c2)cc1 (configuration not stated) | inactive: -14.6%
Cc1cc(C)cc(OP(C)(=O)Nc2ccc(C)cc2C)c1 (configuration not stated) | inactive: -23.3%
COc1ccccc1OP(C)(=O)Nc1cccc(Br)c1 (configuration not stated) | inactive: -14.5%
CC1=NCCc2c1[nH]c1ccccc21.O=[N+]([O-])c1cc([N+](=O)[O-])c(O)c([N+](=O)[O-])c1 | inactive: -19.6%
O=C(O)c1cccc(Nc2c([N+](=O)[O-])cc([N+](=O)[O-])cc2[N+](=O)[O-])c1 | inactive: -4.02%
CP(=O)(Nc1ccccc1)Oc1ccc(F)cc1 (configuration not stated) | inactive: -0.16%
O=[N+]([O-])c1cc([N+](=O)[O-])c(OC2CCCCC2O)c([N+](=O)[O-])c1 (configuration not stated) | inactive: -24.7%
CCCCCOc1ccc(NP(C)(=O)Oc2ccc(Cl)cc2Cl)cc1 (configuration not stated) | inactive: 1.68%
Cc1c([N+](=O)[O-])cc([N+](=O)[O-])c(Br)c1[N+](=O)[O-] | inactive: -21%
CCN(CC)CCCOC(=O)C(O)(c1ccccc1)C1CCCCC1 (configuration not stated) | inactive: 3.62%

Compound | inhibition
CCOC(=O)c1ccc(NP(C)(=O)Oc2ccc(F)cc2)cc1 (configuration not stated) | inactive: 3.02%
COc1ccc(OP(C)(=O)Nc2ccc(SC(F)(F)F)cc2)cc1 (configuration not stated) | inactive: -10.9%
CCN(CC)CCCNc1ccccc1[N+](=O)[O-].O=[N+]([O-])c1cc([N+](=O)[O-])c(O)c([N+](=O)[O-])c1 | inactive: -13.8%
COc1ccc2c(c1O)-c1c(O)c(OC)cc3c1[C@H](C2)[N+](C)(C)CC3.O=[N+]([O-])c1cc([N+](=O)[O-])c([O-])c([N+](=O)[O-])c1[O-] | inactive: -13%
O=C(OC1CN2CCC1CC2)c1ccc([N+](=O)[O-])cc1 (configuration not stated) | inactive: -8.71%
O=C(OCCN1CCN(CCOCc2ccccc2)CC1)C(O)(c1ccccc1)c1ccccc1 | inactive: 20.9%
CP(=O)(Nc1ccccc1F)Oc1ccccc1 (configuration not stated) | inactive: -8.74%
CC(C)c1ccc(OP(C)(=O)Nc2ccc(SC(F)(F)F)cc2)cc1 (configuration not stated) | inactive: 17.6%
O=[N+]([O-])c1cc([N+](=O)[O-])c(Nc2ccc(Cl)cc2)c([N+](=O)[O-])c1 | inactive: 37.8%
Cc1ccccc1NP(C)(=O)Nc1ccccc1C | inactive: -13.4%
O=[N+]([O-])c1cc([N+](=O)[O-])c(C(F)(F)F)c([N+](=O)[O-])c1O | inactive: 9.6%
CP(=O)(Nc1ccc2c(c1)OCCO2)Oc1ccccc1 (configuration not stated) | inactive: -7.98%
CCOP(C)(=S)SCC(=O)NC(C)(CC)C(=O)O (configuration not stated) | inactive: -1.66%
CP(=O)(Nc1ccc(SC(F)(F)F)cc1)Oc1ccc(F)cc1 (configuration not stated) | inactive: 7.28%
Cc1c(C(c2ccc3c(c2)OCO3)c2c(C)n(C)n(-c3ccccc3)c2=O)c(=O)n(-c2ccccc2)n1C.O=[N+]([O-])c1cc([N+](=O)[O-])c(O)c([N+](=O)[O-])c1 | inactive: 1.72%
O=[N+]([O-])c1ccc(OP2(=O)COCCO2)cc1 (configuration not stated) | inactive: 9.35%
Cc1cc(-c2cccc3ccccc23)c(C)cn1.O=[N+]([O-])c1cc([N+](=O)[O-])c(O)c([N+](=O)[O-])c1 | inactive: -3.41%
O=[N+]([O-])c1cc([N+](=O)[O-])c(NCC2CCS(=O)(=O)C2)c([N+](=O)[O-])c1 (configuration not stated) | inactive: -8.9%
CN(C)CCOC(=O)C(O)(c1ccccc1)C1CCCCC1 (configuration not stated) | inactive: -9.2%
COc1ccc(NP(C)(=O)Oc2ccccc2OC)cc1 (configuration not stated) | inactive: 4.53%
COc1ccc(OP(C)(=O)Nc2cccc(Br)c2)cc1 (configuration not stated) | inactive: 21.5%
CCOC(=O)c1ccc(NP(C)(=O)Oc2ccc(Cl)cc2)cc1 (configuration not stated) | inactive: 4.58%
CP(=O)(OC12CC3CC(CC(C3)C1)C2)OC12CC3CC(CC(C3)C1)C2 | inactive: 1.48%
CN(C)C(=O)c1c([N+](=O)[O-])cc([N+](=O)[O-])cc1[N+](=O)[O-] | inactive: 16.7%

Compound | inhibition
COc1ccccc1OP(C)(=O)Nc1ccccc1Br (configuration not stated) | inactive: -4.76%
CC(C)(C)c1ccc(OP(C)(=O)O)cc1 | inactive: 2.84%
CP(=O)(Nc1ccc(Cl)cc1)Oc1ccc(F)cc1 (configuration not stated) | inactive: 0.63%
COc1ccccc1OP(C)(=O)Nc1c(C)n(C)n(-c2ccccc2)c1=O (configuration not stated) | inactive: -4.34%
O=C(OCCCN1CCCC1)C(O)(c1ccccc1)C1CCCCC1 (configuration not stated) | inactive: 9.72%
CP(=O)(Oc1ccccc1)N1CCOC1=O (configuration not stated) | inactive: 6.66%
CCc1ccc(OP(C)(=O)Nc2cccnc2)cc1 (configuration not stated) | inactive: -3.4%
CCN(CC)CC(O)COC(=O)C(O)(c1ccccc1)C1CCCCC1 (configuration not stated) | inactive: 4.62%
COc1ccc(OP(C)(=O)Nc2ccc(Br)cc2)cc1 (configuration not stated) | inactive: -6.9%
CP(=O)(Nc1ccccn1)Oc1ccccc1 (configuration not stated) | inactive: 17%
COc1ccccc1OP(C)(=O)Nc1ccc(C)cc1C (configuration not stated) | inactive: 23.2%
CCc1ccc(OP(C)(=O)O)cc1 | inactive: 9.69%
Cc1c(NP(C)(=O)Oc2ccc(C(C)C)cc2)c(=O)n(-c2ccccc2)n1C (configuration not stated) | inactive: 5.32%
O=[N+]([O-])c1cc([N+](=O)[O-])c(Nc2ccccn2)c([N+](=O)[O-])c1 | inactive: 3.31%
COc1ccc(OP(C)(=O)Nc2ccccn2)cc1 (configuration not stated) | inactive: -2.52%
CN(C)CCOC(=O)C(O)(c1ccccc1)C1CCCC1 (configuration not stated) | inactive: -21.3%
COc1ccccc1OP(C)(=O)Nc1ccc(Br)cc1 (configuration not stated) | inactive: 11.3%
CP(=O)(Nc1ccc(Cl)cc1Cl)Oc1ccccc1 (configuration not stated) | inactive: -15.9%
CCCCCCCCCCCCCCCC1C[N+](C)(C)CCOP(C)(=O)O1 (configuration not stated) | inactive: -8.28%
CP(=O)(OCCOc1ccccc1)OCCOc1ccccc1 | inactive: 8.43%
COc1ccccc1OP(C)(=O)Nc1ccc(C)c(C)c1 (configuration not stated) | inactive: 12.7%
COc1ccc(OP(C)(=O)Nc2ccccc2Br)cc1 (configuration not stated) | inactive: -2.83%
O=C1C(O)=C([N+](=O)[O-])C(=O)C(O)=C1[N+](=O)[O-] | inactive: -8.68%
Cc1cc(C)cc(OP(C)(=O)Nc2cccc(C(F)(F)F)c2)c1 (configuration not stated) | inactive: 2.58%
